## Antibody variant affinities, Ab-91 heavy chain, assay 2

Reference: Engelhart et al. 2022, doi:10.1038/s41597-022-01779-4. File: FLAb, binding data.

Target peptide (SARS-CoV-2 spike, HR2 region): PDVDLGDISGINAS

Parent: Ab-91, a human scFv built as VL, the linker GGGGSGGGGSGGGGS, VH. Only the CDRs of the heavy chain vary.
VL: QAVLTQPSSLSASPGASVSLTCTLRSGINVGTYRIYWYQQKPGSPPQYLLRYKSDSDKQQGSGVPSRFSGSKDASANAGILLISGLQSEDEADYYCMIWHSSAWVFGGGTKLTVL
VH: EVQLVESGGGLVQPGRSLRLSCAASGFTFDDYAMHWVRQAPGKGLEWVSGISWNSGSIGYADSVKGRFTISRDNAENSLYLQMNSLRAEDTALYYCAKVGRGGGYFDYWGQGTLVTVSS

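AAYL51 was designed without a model: most single CDR substitutions and a random sample of double and triple ones. The assay is AlphaSeq: two haploid yeast populations carry antibody and antigen on their surface. After mating in shaken culture at 30 °C for 16 h, diploids were selected and their barcode pairs sequenced. Read counts were normalised to the haploid input and turned into Kd by a linear fit to BCL2-family pairs of known affinity, for each replicate. There are three technical replicates.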

Variants are written as CDR1, CDR2 and CDR3 of the heavy chain (limits as in the source). Parent: GFTFDDYAMH, GISWNSGSIGYADSVK, VGRGGGYFDY.
Values are apparent Kd, the geometric mean of the replicates that gave a signal; lower means stronger binding.
"no signal" means that the variant was in the library but no mating with the target was seen in any replicate; the authors take this as a sign of poor binding, and no number exists.
As a blank, each scFv also met three strains without target: over library AAYL51, 21% of these pairings were detected, typically at 34 µM and seldom below 1.8 µM. Also given: how often the same scFv was detected with the empty control strains.

CDR-H1	CDR-H2	CDR-H3	apparent Kd	replicates with signal	signal with controls
MFTFDDYAMH	GISWNSWSIGYADSVK	VGRGGVYFDY	no signal	0/3	1/9
GFTFDDYAAH	GISWNSGSIGYADSVK	VTRWGGYFDY	61 µM	2/3	6/9
GFTFDDYAQH	GISWNSGLIGYADSVK	VGRGGGYFDY	2.9 µM	1/3	4/9
GFTFDDYAMH	NISWNSGSIGYADSVK	VGRGGGYHEY	no signal	0/3	0/9
GFTFDDYAMH	GISWMSGSIGPADSSK	VGRGGGYFDY	no signal	0/3	1/9
PFTFDDYAMH	GISWNSGSIGYADSVK	VGRGVGYFDY	no signal	0/3	1/9
GFTFDDYAMH	GISWWSGSIGGADSVL	VGRGGGYFDY	no signal	0/3	0/9
QFTFDSYAMH	GISWNSGSIGYADSVK	VGRGGGYPDY	62 µM	3/3	4/9
GFTFDNYAMH	GISWNFGSIGYNDSVK	VGRGGGYFDY	87 µM	2/3	5/9
GFTFDVYAMH	GISWNSGSIGYADTFK	VGRGGGYFDY	no signal	0/3	0/9
GFTFDDYAMH	GIVWNSGSIYHADSVK	VGRGGGYFDY	1.2 µM	1/3	0/9
GFTFDDYAMH	GISWNSGSIGYGDSVK	VGWGGGYFDY	140 nM	3/3	5/9
GFTEDDYAMH	GIVWPSGSIGYADSVK	VGRGGGYFDY	320 µM	2/3	3/9
DFTFDDYAMH	GISWNMGSIGYADSVH	VGRGGGYFDY	1.1 mM	1/3	1/9
GFMFDDYAGH	GISWNSGSTGYADSVK	VGRGGGYFDY	100 µM	3/3	7/9
GFTFDDHAMT	GISWNSGSEGYADSVK	VGRGGGYFDY	990 µM	3/3	6/9
DFTFDDYAMH	GISWNSGSIGLADSVK	VGRGGGFFDY	25 µM	3/3	1/9
GFTFDTYAMH	GISWNSGSIGYADSVK	VGRGGGYFPY	11 nM	3/3	2/9
GFTFKDYAMH	GISWNSGSLGVADSVK	VGRGGGYFDY	440 nM	3/3	2/9
GFTFDDGAMH	GISWNSGQIGYADSVK	VGRGGGYFDL	7.9 µM	3/3	5/9
GFTFDDYAMH	GISWNYGQIGYADSVK	VHRGGGYFDY	no signal	0/3	1/9
GITFDDYAMH	GISTNSGSIGYADSVK	GGRGGGYFDY	no signal	0/3	1/9
GFTPDDYAMH	GISWNSGSIRYADYVK	VGRGGGYFDY	56 µM	2/3	4/9

Further variants, results first:

apparent Kd	replicates with signal	signal with controls	CDR-H1	CDR-H2	CDR-H3
110 µM	1/3	3/9	GFDFDDYAMH	GISWNSGSIGYPGSVK	VGRGGGYFDY
no signal	0/3	2/9	GFTFDDYAGH	GISWNSGSIGIVDSVK	VGRGGGYFDY
no signal	0/3	2/9	GFTFDDYAMF	GISWNSGSIGYADWVK	VGRGGGYMDY
240 µM	3/3	6/9	GETFDDYAMM	GISWNSGSIWYADSVK	VGRGGGYFDY
440 nM	3/3	5/9	GFTFDDYAMM	GISWHSGSIGYADSVD	VGRGGGYFDY
2.0 µM	1/3	0/9	GFTFDDYAMH	GVSWNSGSIIDADSVK	VGRGGGYFDY
33 µM	1/3	3/9	GFTFDDVAMH	RISWNSGSIGWADSVK	VGRGGGYFDY
no signal	0/3	1/9	GFTFDDYAMH	GISWNSGSKGYAQSVK	VGRGGGYGDY
no signal	0/3	1/9	GFTFDDYAMH	GISANSGSISYADSVK	TGRGGGYFDY
no signal	0/3	0/9	GFTFDDYAMH	GISWNFGSIKCADSVK	VGRGGGYFDY
no signal	0/3	1/9	GFTFDDYAMH	GISLNSGSCGYADSVK	VGRGGGRFDY
3.0 µM	2/3	2/9	GFTFDDYEMH	GISWNSGSIGQADSVK	VGRGGGYFDE
no signal	0/3	0/9	GFTFDDYAMH	GISWNSGSIGYADSVK	VGRRGGYFDM
9.9 µM	2/3	1/9	LFTFVDRAMH	GISWNSGSIGYADSVK	VGRGGGYFDY
1.9 mM	2/3	3/9	GFTFDDYAMI	GISWNSGSIGYADSVK	VGRGGGYKDE
15 µM	1/3	2/9	GFTFDDYAMH	GISFNSGSIGYADSVK	VGRGGGYFPF
420 µM	2/3	5/9	GFTFDDYAMH	GISWHSGSIMYHDSVK	VGRGGGYFDY
100 µM	2/3	4/9	GFTFDDYAKH	GMSWNSGSIGCADSVK	VGRGGGYFDY
71 µM	2/3	1/9	GFTFDDYAMH	RISWNSGSIGYADSVK	VGLGGGYFDY
6.1 µM	1/3	0/9	GLTFDDYAMH	MISWNSGSIGYTDSVK	VGRGGGYFDY
16 nM	3/3	0/9	GFTFDDYAMH	GISFNSGSIGYDDSVK	VGRGGQYFDY
360 µM	1/3	1/9	GFFFDMYAMH	GISWNSTSIGYADSVK	VGRGGGYFDY
no signal	0/3	1/9	GFTFCDYAMI	GISWNSGSIGYADSMK	VGRGGGYFDY
no signal	0/3	2/9	GFTFDDYAMA	GISWNSGSIGYAHSVK	VGRGGGYFDH

Picked from the list: the 6 lowest averages where every replicate gave a value.

CDR-H1	CDR-H2	CDR-H3	apparent Kd	replicates with signal	signal with controls
GFTFDTYAMH	GISWNSGSIGYADSVK	VGRGGGYFPY	11 nM	3/3	2/9
GFTFDDYAMH	GISFNSGSIGYDDSVK	VGRGGQYFDY	16 nM	3/3	0/9
GFTFDDYAMH	GISWNSGSIGYGDSVK	VGWGGGYFDY	140 nM	3/3	5/9
GFTFDDYAMM	GISWHSGSIGYADSVD	VGRGGGYFDY	440 nM	3/3	5/9
GFTFKDYAMH	GISWNSGSLGVADSVK	VGRGGGYFDY	440 nM	3/3	2/9
GFTFDDGAMH	GISWNSGQIGYADSVK	VGRGGGYFDL	7.9 µM	3/3	5/9